This passage reports IC50 results from US10202340B2, “Glucosylceramide synthase inhibitors and therapeutic methods using the same” (THE REGENTS OF THE UNIVERSITY OF MICHIGAN, priority 2015, dated 2019).

Chains of the proteins cited; added tags and fusions are not shown. Residues count along the entry.
UniProt A0A8I3MXG6, 1-394: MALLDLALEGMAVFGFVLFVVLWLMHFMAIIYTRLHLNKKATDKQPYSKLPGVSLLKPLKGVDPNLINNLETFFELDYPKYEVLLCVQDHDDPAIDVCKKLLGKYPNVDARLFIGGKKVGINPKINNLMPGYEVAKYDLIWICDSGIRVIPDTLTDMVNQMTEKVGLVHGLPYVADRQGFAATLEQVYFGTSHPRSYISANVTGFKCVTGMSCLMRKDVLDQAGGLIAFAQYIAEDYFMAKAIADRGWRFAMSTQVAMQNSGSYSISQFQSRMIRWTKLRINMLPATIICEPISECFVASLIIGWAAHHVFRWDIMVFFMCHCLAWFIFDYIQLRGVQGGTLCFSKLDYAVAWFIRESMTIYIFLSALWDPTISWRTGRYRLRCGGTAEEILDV

For one data set, the target named is GCS in MDR1-MDCKII cells (Canis lupus familiaris, UniProt A0A8I3MXG6). To be noted: read-out: MDR1-MDCKII IC50; MDCKII cells stably expressing human MDR1, 24 hours. On the procedure: (§1) Parental (WT-)MDCKII cells and MDCKII cells retrovirally transduced with human MDR-1 cDNA were obtained from the Netherlands Cancer Institute. Both cell lines were routinely maintained in medium consisting of Opti-MEM/F12 (1:1), 5% FBS, 100 U/mL of penicillin, 100 μg/mL streptomycin and […] L-glutamine. MDCKII cells were newly thawed from frozen ampules every two months.
(§2) Stock solutions of water-insoluble glycosphingolipid inhibitors (100 mM) were prepared by dissolving each inhibitor into 100% ethanol as previously described (3). The inhibitor-ethanol solutions then were diluted 50× into 2 mM delipidated bovine serum albumin-phosphate buffered saline solution to make water-soluble glycosphingolipid inhibitor-bovine serum albumin complexes. The inhibitor-bovine serum album complexes were sterile-filtered and stored at −20° C. Prior to use, portions of the inhibitor-bovine serum albumin complexes were further diluted with Opti-F12 to make treatment solutions. Equal amounts of bovine serum albumin and ethanol were added into the control cultures. WT and MDR1-MDCKII cells (5×10^5) were seeded into 10-cm culture dishes containing 10 ml of Opti-F12 with 5% FBS.
(§3) Following inhibitor treatment, whole cellular lipids of wild type and MDR1-MDCKII cells were extracted as previously described in detail (10). Briefly, cells were washed with ice-cold phosphate buffered saline, fixed by methanol, and collected with rubber scraper. Chloroform was then added to yield a theoretical ratio of chloroform:methanol:water at 1:2:0.8 (v/v/v) to form a mono-phase. Cell debris and proteins were removed by centrifugation at 2200×g for 30 min. The supernatants were portioned by adding chloroform and 0.9% NaCl. The lower organic phases containing neutral glycosphingolipids lipids were washed with methanol and 0.9% NaCl, and subjected to base- and acid-hydrolysis (10). A portion of purified glycosphingolipids normalized to 100 nmol of total phospholipids was analyzed by high performance thin layer chromatography. The thin layer chromatography separations were processed twice. The plate pretreated with 1% sodium borate was first developed in a solvent system consisting of chloroform/methanol (98/2, v/v). After air drying, the plate was then developed in a solvent system containing chloroform/methanol/water (70/30/4, v/v/v). The levels of glucosylceramide were detected by charring with 8% cupric sulfate in 8% phosphoric acid, and quantified by densitometric scanning using ImageJ, NIH Image.

For data set [1], the target named is glucosylceramide synthase (GCS) (Canis lupus familiaris, UniProt A0A8I3MXG6). Put plainly: GCS activity, broken cell assay (inhibition of GlcCer synthesis in broken wild-type MDCK cell preparations). The class given is biochemical, canine. To be noted: mean of n > 2 experiments. The protocol: Enzyme activity was measured as described previously (9). Madin-Darby canine kidney (MDCK) cell homogenates (120 μg of protein) were incubated with uridine diphosphate-[^3H]glucose (100,000 cpm) and liposomes consisting of 85 μg of octanoylsphingosine, 570 μg of dioleoylphosphatidylcholine, and 100 μg of sodium sulfatide in a 200 μL reaction mixture and kept for 1 h at 37° C.

The target in another data set is GCS in WT-MDCKII cells (Canis lupus familiaris, UniProt A0A8I3MXG6). Nature of the data set: Inhibition of GlcCer production in whole wild-type MDCKII cells. Type of data set: cell-based, canine. To be noted: 24 hours, read-out: WT-MDCK IC50. On the procedure: as §1, §2, §3

pIC50: −log10 of the molar value.

As usually defined, the pIC50 is the IC50 on a negative log10 scale, so that one unit is a factor of ten. With `COc1ccc([C@@H](O)[C@@H](CN2CCCC2)NC(=O)CC2CCCc3ccccc32)cc1` (stereo partly drawn) [Example 13, N-((1R,2R)-1-hydroxy-1-(4-methoxyphenyl)-3-(pyrrolidin-1-yl)propan-2-yl)-2-(1,2,3,4-tetrahydronaphthalen-1-yl)acetamide], the results for the pIC50 (on GCS in MDR1-MDCKII cells; in data set [1]; on GCS in WT-MDCKII cells) were 7.35, 6.57 and 7.96, respectively.

In the case of `O=C(CC1Cc2ccccc2C1)N[C@H](CN1CCCC1)[C@H](O)c1ccc(OC(F)(F)F)cc1` [Example 7, 2-(2,3-dihydro-1H-inden-2-yl)-N-((1R,2R)-1-hydroxy-3-(pyrrolidin-1-yl)-1-(4-(trifluoromethoxy)phenyl)propan-2-yl)acetamide], the figures for the pIC50 (on GCS in MDR1-MDCKII cells; in data set [1]; on GCS in WT-MDCKII cells) were 7.96, 6.63 and 8.40, respectively.

`COc1cccc([C@@H](O)[C@@H](CN2CCCC2)NC(=O)CC2Cc3ccccc3C2)c1` [Example 3, 2-(2,3-dihydro-1H-inden-2-yl)-N-((1R,2R)-1-hydroxy-1-(3-methoxyphenyl)-3-(pyrrolidin-1-yl)propan-2-yl)acetamide]: the figures for the pIC50 (at GCS in MDR1-MDCKII cells; in data set [1]; on GCS in WT-MDCKII cells) were 7.57, 7.27 and 8.30, respectively.

For the compound `O=C(CC1Cc2ccccc2C1)N[C@H](CN1CCCC1)[C@H](O)c1ccc(OCC(F)(F)F)cc1` [Example 12, 2-(2,3-dihydro-1H-inden-2-yl)-N-((1R,2R)-1-hydroxy-3-(pyrrolidin-1-yl)-1-(4-(2,2,2-trifluoroethoxy)phenyl)propan-2-yl)acetamide], the values for the pIC50 (at GCS in MDR1-MDCKII cells; in data set [1]; on GCS in WT-MDCKII cells) were 8.60, 7.25 and 9.06, respectively.

For the compound `O=C(CC1Cc2ccccc2C1)N[C@H](CN1CCCC1)[C@H](O)c1ccc(OC(F)F)cc1` [Example 9, N-((1R,2R)-1-(4-(difluoromethoxy)phenyl)-1-hydroxy-3-(pyrrolidin-1-yl)propan-2-yl)-2-(2,3-dihydro-1H-inden-2-yl)acetamide], the pIC50 is 7.77 at GCS in MDR1-MDCKII cells, 6.91 in data set [1] and 8.00 on GCS in WT-MDCKII cells.

Consider `O=C(CC1Cc2ccccc2C1)N[C@H](CN1CCC1)[C@H](O)c1ccc(OC(F)(F)F)cc1` [Example 17, N-((1R,2R)-3-(azetidin-1-yl)-1-hydroxy-1-(4-(trifluoromethoxy)phenyl)propan-2-yl)-2-(2,3-dihydro-1H-inden-2-yl)acetamide], for which the pIC50 on GCS in MDR1-MDCKII cells is 7.39; on GCS in WT-MDCKII cells, 7.62.

As to `COc1ccc([C@@H](O)[C@@H](CN2CCCC2)NC(=O)CC2Cc3ccccc3C2)cc1F` [Example 1, 2-(2,3-dihydro-1H-inden-2-yl)-N-((1R,2R)-1-(3-fluoro-4-methoxyphenyl)-1-hydroxy-3-(pyrrolidin-1-yl)propan-2-yl)acetamide], the pIC50 on GCS in MDR1-MDCKII cells was 8.03; in data set [1] it was 7.57; on GCS in WT-MDCKII cells it was 8.52.

On to `COc1ccc([C@@H](O)[C@@H](CN2CCCC2)NC(=O)CC2Cc3ccccc3C2)cc1` [Example 2, 2-(2,3-dihydro-1H-inden-2-yl)-N-((1R,2R)-1-hydroxy-1-(4-methoxyphenyl)-3-(pyrrolidin-1-yl)propan-2-yl)acetamide], for which the values for the pIC50 (at GCS in MDR1-MDCKII cells; in data set [1]; on GCS in WT-MDCKII cells) were 7.82, 7.32 and 8.52, respectively.

`O=C(CC1Cc2ccccc2C1)N[C@H](CN1CCCC1)[C@H](O)c1ccc(C(F)(F)F)cc1` [Example 8, 2-(2,3-dihydro-1H-inden-2-yl)-N-((1R,2R)-1-hydroxy-3-(pyrrolidin-1-yl)-1-(4-(trifluoromethyl)phenyl)propan-2-yl)acetamide]: the pIC50 on GCS in MDR1-MDCKII cells is 7.26; on GCS in WT-MDCKII cells it was 7.46.

Turning to `COc1cc([C@@H](O)[C@@H](CN2CCCC2)NC(=O)CC2Cc3ccccc3C2)ccc1F` [Example 5, 2-(2,3-dihydro-1H-inden-2-yl)-N-((1R,2R)-1-(4-fluoro-3-methoxyphenyl)-1-hydroxy-3-(pyrrolidin-1-yl)propan-2-yl)acetamide], the pIC50 on GCS in MDR1-MDCKII cells is 5.58; at GCS in WT-MDCKII cells it was 7.14.

Regarding `COc1ccc([C@@H](O)[C@@H](CN2CCCC2)NC(=O)CC2CCc3ccccc3C2)cc1` (stereo partly drawn) [Example 6, N-((1R,2R)-1-hydroxy-1-(4-methoxyphenyl)-3-(pyrrolidin-1-yl)propan-2-yl)-2-(1,2,3,4-tetrahydronaphthalen-2-yl)acetamide], the pIC50 at GCS in MDR1-MDCKII cells is 7.35; in data set [1] it was 6.57; on GCS in WT-MDCKII cells, 7.96.
